Data: US9958461B2, “Detection of protein to protein interactions” (THE GOVERNING COUNCIL OF THE UNIVERSITY OF TORONTO, priority 2013, dated 2018)

Assays:
EGFR-Wt [1] = assay: MaMTH EGFR-interactor screen, lentiviral preys against EGFR-wildtype bait (interaction score); format: cell-based, human; settings: ratio of EGFR-Wt mean to EGFR-L858R mean interaction score
Description: (§1) After lentivirus harvest, target cells (stable 5×GAL4UAS-luciferase reporter-HEK293T cells) were infected at a multiplicity of infection (MOI) of around 0.3-0.4 to ensure single copy integration per cell. Cells were selected in puromycin for at least 48 h and transfected with either EGFR-wildtype or EGFR-L858R baits in triplicates. 24 h after transfection, cells were lysed and luciferase assays performed. On each set of interaction assays, various negative controls were included. To calculate a MaMTH-interaction scores, negative controls were averaged and the fold-change of luciferase activity compared to the averaged controls was calculated and defined as the interaction score.
(§2) Each set of experiments contains a defined set of negative controls in at least three replicates. Negative controls were chosen as such that there is a range of controls showing high-background luciferase activity (normally cytosolic proteins: Fabp5, Pex19) as well as medium-background luciferase activity (membrane-bound interactors: Pex7, GABBR2). Negative controls were averaged and the fold-change of luciferase activity was calculated. Using this method, we have a stringent cut-off and chose an interaction score >1 to be interacting proteins.
(§3) Our cut-off of 1 is based on fold-change difference in luciferase activity over averaged negative controls. Negative controls include cytosolic preys (which tend to promiscuously bind to many proteins), plasma membrane- and peroxisomal-prey proteins. In general, we chose stringent conditions by testing preys that tend to have high luciferase background with any bait tested, in order to generate high-confidence interaction data. […] Phosphorylated tyrosine residues on the receptor are typically docking sites for downstream cytoplasmic targets and recognized through SH2 or PTB domains^43.

EGFR-Wt [2] = biological target: T1, EGFR-Wt (Homo sapiens, UniProt P00533); assay: as above; format: cell-based; settings: MaMTH interaction score of prey with EGFR-Wt bait, mean
T1 construct: with the advantage of testing full-length integral membrane proteins; (GGGGS)2 linker-Cub (human ubiquitin aa 35-76)-GAL4(1-147)-mNFkB(364-550) (C); expressed in transfected cells
Description: as §1, §2, §3

EGFR-L858R = biological target: T2, EGFR-L858R (Homo sapiens, UniProt P00533, L858R); assay: MaMTH EGFR-interactor screen, lentiviral preys against EGFR-L858R bait (interaction score); format: cell-based; settings: MaMTH interaction score of prey with EGFR-L858R bait
T2 construct: with the advantage of testing full-length integral membrane proteins; (GGGGS)2 linker-Cub (human ubiquitin aa 35-76)-GAL4(1-147)-mNFkB(364-550) (C); expressed in transfected cells
Description: as §1, §2, §3

| Substance | Wt/L858R (EGFR-Wt [1]) | EGFR-Wt mean (EGFR-Wt [2]) | EGFR-L858R mean (EGFR-L858R) |
| --- | --- | --- | --- |
| CDK1 | 0.83 | 1.64 | 1.97 |
| ARRB2 | 0.47 | 2.52 | 5.38 |
| RAF1 | 1.29 | 4.91 | 3.81 |
